Measurements taken from article PMC7096397, “Improving the drug-likeness of inspiring natural products - evaluation of the antiparasitic activity against Trypanosoma cruzi through semi-synthetic and simplified analogues of licarin A” (Scientific Reports, 2020).

Experiments:
[1] = PAMPA intestinal model (GIT); format: in vitro ADME
Experimental: Intestinal permeability of tested compounds was estimated applying the PAMPA model previously developed and validated. Briefly, stock solutions were prepared in dimethyl sulfoxide (DMSO) at the concentrations of 10 mM and then diluted with Tris buffer to give the final concentration donor solution at 300 µM and 5% DMSO. The assay procedure was initiated by filling each well of the microtiter plate (MultiScreen, catalogue no. MATRNPS50, Millipore Corporation, Bedford, MA, USA) with 300 μL of each donor drug solution. Carefully, and avoiding the pipette tip contact with the filter, the hydrophobic filter (0.45 μm) of each acceptor well of the 96-well microfilter plate (MultiScreen-IP, catalogue no. MAIPNTR10, Millipore Corporation, Bedford, MA, USA) was adsorbed with 6 μL of the artificial lipid solution which was composed of 2% of L-α-phosphatidylcholine from soybean dissolved, by sonication, in n-dodecane. Immediately after this application, 150 μL of Tris buffer containing 5% DMSO was added to the receiving well. The receiving well was mounted on the donor plate, keeping the underside of the membrane in contact with the donor solution. The assembled donor–acceptor plates were incubated under constant stirring (3 g) at 25 °C for approximately 16 h. Subsequently, the quantity of each compound presented at the receptor solution (150 μL) was determined by UV/VIS spectrophotometrically. The experiments were performed in hexaplicates (n = 6) and the apparent permeability coefficient (Papp) calculated in centimeters per second (cm/s), together with the standard deviation (SD).

PAMPA-BBB model = format: in vitro ADME
Experimental: The methodology herein applied was similar to that described in the previous section, however with the purpose of assessing the permeability of the compounds through the blood brain barrier (BBB). Thus, stock solutions (10 mM) of each test compound were prepared in DMSO and diluted with phosphate buffered saline (PBS) at pH 7.4. The final concentration of donor solutions was 300 μM and DMSO of 5%. Artificial membrane lipid solutions were prepared daily by dissolving, in n-dodecane, the porcine brain lipid extracted as described[40] at the final concentration of 2% (m/v). PAMPA procedure was similar to that described in the previous section although, in PAMPA-BBB, the donor and acceptor solutions were prepared using phosphate buffer saline (PBS) at pH 7.4 and the Papp was obtained through the equation previously reported.

NCTC cells-clone L929 = experiment: Cytotoxicity against mammalian cells (MTT); format: cell-based, Murine; conditions: 48 h
Experimental: Rhesus monkey kidney cells (LLC-MK2-ATCC CCL 7) were used for the maintenance of trypomastigotes of T. cruzi (Y strain) using RPMI-1640 medium supplemented with 2% fetal bovine serum (FBS). The cells and parasites were kept at 37 °C in a humidified atmosphere containing 5% CO2. Peritoneal macrophages, used in the experiments of anti-amastigote assay, were obtained by washing the peritoneal cavity of BALB/c mice, with RPMI-1640 medium supplemented with 10% FBS and kept at 37 °C in a 5% CO2 humidified incubator. Murine conjunctive cells (NCTC clone 929, ATCC) and LLC-MK2 were kept in RPMI-1640 supplemented with 10% FBS at the same conditions described above.
NCTC cells-clone L929 (6 × 10^4 cells/well) were seeded and incubated with tested compounds (200–1.56 µM) for 48 h at 37 °C in a 5% CO2 humidified incubator. Cytotoxic concentration (CC50) was determined by MTT assay. Optical density was determined in FilterMax F5 (Molecular Devices) at 570 nm. Selectivity Index (SI) was determined using the following ratio: CC50 against NCTC cells/IC50 against parasites.
IC50 and CC50 values were calculated using a sigmoid dose-response curves in Graph–Pad Prism 5.0 software (GraphPad Software - San Diego, CA, USA). For the mechanism of action studies one-way ANOVA (Turkey’s Multiple Comparison test) was used for significance (p < 0.05). […]

Substance: isoeugenol [compound 4]
- Papp (PAMPA, bound stated in text) ([1]; PAMPA intestinal model): < 10 ×10⁻⁶ cm/s
- Papp GIT ([1]; PAMPA intestinal model, 300 µM donor, Tris buffer, 25 °C, 16 h): 6.17 10^−6 cm/s
- permeability on GIT model (in words) ([1]; PAMPA-GIT): adequate permeability on GIT model
- plasma protein binding percentage ([1]; estimated from PAMPA-GIT Papp (threshold 1 × 10^−5 cm/s)): lower than 90%
- permeability in BBB model (in words) (PAMPA-BBB model; PAMPA-BBB): did not seem to cross the BBB
- Papp BBB (PAMPA-BBB model; PAMPA-BBB model, 300 µM donor, PBS pH 7.4): 1.60 10^−6 cm/s
- CC50 (NCTC cells-clone L929): > 200 µM
